{
  "sequences": {"note": "The chains behind the UniProt entries cited, without tags or fusion partners. Where a name states a change or a piece, a line headed by the entry shows the natural chain unless it says otherwise.", "UniProt P25099, whole entry": "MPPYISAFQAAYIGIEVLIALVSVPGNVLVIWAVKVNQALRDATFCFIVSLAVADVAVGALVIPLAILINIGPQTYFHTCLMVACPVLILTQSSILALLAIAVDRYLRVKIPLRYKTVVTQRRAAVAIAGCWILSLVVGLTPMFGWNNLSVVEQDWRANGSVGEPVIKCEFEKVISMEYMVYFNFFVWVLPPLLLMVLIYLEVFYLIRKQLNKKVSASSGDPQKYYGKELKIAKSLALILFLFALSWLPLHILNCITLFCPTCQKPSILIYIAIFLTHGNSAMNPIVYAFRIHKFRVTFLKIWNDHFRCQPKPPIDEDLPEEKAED", "UniProt P30543, whole entry": "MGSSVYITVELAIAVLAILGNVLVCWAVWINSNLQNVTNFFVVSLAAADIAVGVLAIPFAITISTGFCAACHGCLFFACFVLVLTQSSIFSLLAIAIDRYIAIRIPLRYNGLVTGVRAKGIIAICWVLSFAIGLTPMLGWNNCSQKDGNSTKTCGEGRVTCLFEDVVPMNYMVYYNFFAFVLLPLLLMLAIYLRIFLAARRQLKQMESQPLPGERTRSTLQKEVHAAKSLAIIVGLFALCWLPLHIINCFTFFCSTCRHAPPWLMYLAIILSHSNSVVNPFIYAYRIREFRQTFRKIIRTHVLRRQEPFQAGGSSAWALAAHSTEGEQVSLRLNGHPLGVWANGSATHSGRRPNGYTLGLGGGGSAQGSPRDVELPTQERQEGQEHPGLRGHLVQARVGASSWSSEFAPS"},
  "source": "patent US20050107611A1",
  "about": "“Pyrazolyl-substituted triazoloquinoxalines” (priority 2001, published 2005)",
  "key": {"[1]": {"tested_on": "A2A adenosine receptor", "test": "A2A adenosine receptor affinity from the literature (Matuszczak et al. 1998)", "format": "binding", "settings": "A2A over A1"}, "[2]": {"target": "A1 adenosine receptor (Rattus norvegicus, UniProt P25099)", "settings": "read-out: A1 Ki; cited from earlier work"}, "[3]": {"target": "A2A adenosine receptor (Rattus norvegicus, UniProt P30543)", "settings": "read-out: A2A Ki; cited from earlier work"}},
  "data": [
    {"smiles": "Cc1nnc2c(-c3cc(Cl)n[nH]3)nc3ccccc3n12", "values": [
      {"measurement": "selectivity factor", "setting": "[1]", "value": "about 5"},
      {"measurement": "Ki", "setting": "[2]", "value": 7.85, "unit": "µM"},
      {"measurement": "Ki", "setting": "[3]", "value": 1430, "unit": "nM"}
    ]}
  ]
}
